Measured values as given in ChEMBL document CHEMBL3627700, “Discovery of novel N-aryl piperazine CXCR4 antagonists” (Bioorg Med Chem Lett, 2015).

Tests used:
[1] = tested on: Human immunodeficiency virus 1; assay: Antiviral activity against HIV1 3B assessed as inhibition of viral attachment to human MAGI cells; format: functional, organism-based; details: Human immunodeficiency virus 1, 3B
[2] = Selectivity ratio of IC50 for CXCR4 in human Chem-1 cells to IC50 for HIV1 3B assessed as inhibition of viral attachment to human MAGI cells; format: cell-based

Row | Structure (SMILES) | IC50 [1] [µM] | Ratio IC50 [2]
1 | NCCCCN(C[C@H]1CN(Cc2ccccc2)CCN1)[C@H]1CCCc2cccnc21 | 0.15 | –
2 | NCCCCN(C[C@@H]1CN(Cc2ccccc2)CCN1)[C@H]1CCCc2cccnc21 | 0.03 | 6
